Experimental data from ChEMBL document CHEMBL3217546, “The synthesis and receptor binding affinities of DDD-016, a novel, potential, atypical antipsychotic” (Medchemcomm, 2012).

By UniProt entry, the sequences of proteins in these tests, tags left out. Where a name states a change or a piece, a line headed by the entry shows the natural chain unless it says otherwise.
UniProt P28566: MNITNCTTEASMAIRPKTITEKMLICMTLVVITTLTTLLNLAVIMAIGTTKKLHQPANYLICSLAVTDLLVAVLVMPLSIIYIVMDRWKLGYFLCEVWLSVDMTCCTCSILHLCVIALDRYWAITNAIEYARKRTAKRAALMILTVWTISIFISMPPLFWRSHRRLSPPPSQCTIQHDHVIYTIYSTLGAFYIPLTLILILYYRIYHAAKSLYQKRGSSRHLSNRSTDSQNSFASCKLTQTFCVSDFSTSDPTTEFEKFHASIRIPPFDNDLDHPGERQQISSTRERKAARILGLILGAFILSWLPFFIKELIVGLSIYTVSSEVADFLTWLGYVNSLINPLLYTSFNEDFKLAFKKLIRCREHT
UniProt P28221: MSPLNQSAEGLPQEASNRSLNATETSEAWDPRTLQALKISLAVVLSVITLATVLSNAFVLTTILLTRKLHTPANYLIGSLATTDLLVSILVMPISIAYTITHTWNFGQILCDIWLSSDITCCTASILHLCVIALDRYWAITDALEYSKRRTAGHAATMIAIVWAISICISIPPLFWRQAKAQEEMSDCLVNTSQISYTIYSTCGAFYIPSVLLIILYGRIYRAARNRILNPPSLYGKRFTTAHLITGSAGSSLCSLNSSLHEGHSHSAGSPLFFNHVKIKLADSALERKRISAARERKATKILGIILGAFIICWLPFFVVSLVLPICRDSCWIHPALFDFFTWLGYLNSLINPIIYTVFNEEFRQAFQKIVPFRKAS

Legend:
[1] = target: 5-hydroxytryptamine receptor 1E (Homo sapiens, UniProt P28566)
[2] = target: 5-hydroxytryptamine receptor 1D (Homo sapiens, UniProt P28221)

For `Cc1nc2n(c(=O)c1CCN1CCC(c3noc4cc(F)ccc34)CC1)CCCC2` [RISPERIDONE], the Ki [1] was > 1000 nM.

With `OCCOCCN1CCN(C2=Nc3ccccc3Sc3ccccc32)CC1` [QUETIAPINE] the Ki [2] was > 1000 nM.
